Relative growth data for 78 compounds are collected here from published antibiotic growth screens (doi:10.1038/s41589-023-01349-8).

Each structure is given as a SMILES string. Some of the results follow.

This assay deals with A. baumannii ATCC 17978. In words: relative growth (fraction of control); higher = less inhibition. The following applies: 50 µM.
For the compound `Cc1ccc(Cl)c(Nc2ccccc2C(=O)[O-])c1Cl.[Na+]`, the relative growth was found to be 0.798. Then `CCCCc1ccc(CC(=O)O)cc1`, with 1.03; and `CN(C)CCCNC(=O)C[C@H]1CC[C@H](NS(=O)(=O)c2ccccc2)[C@H](CO)O1`, with 1.01. Compound `CC(C)(C)OC(=O)C[C@@H]1CC=CC[C@H](CC(=O)NCCO)C(=O)NCCOC1=O` gave a relative growth of 1.07. `CC(C)NC(=O)N(C)C[C@H]1Oc2ncc(-c3ccc(C(=O)N(C)C)cc3)cc2C(=O)N([C@H](C)CO)C[C@@H]1C`: the relative growth was determined as 1.03. Next, `CO[C@H]1CN(C)C(=O)c2cc(NS(C)(=O)=O)ccc2OC[C@@H](C)N(C(=O)c2ccc3c(c2)OCO3)C[C@H]1C`: 1.08. The compound `CC(=O)N1CCN(CC(N)=S)CC1` had a relative growth of 1.06. `COc1ccccc1CN1C(=O)c2ccccc2[C@](Cc2ccccc2I)(C(=O)O)[C@@H]1c1ccc(CO)cc1`: the relative growth was determined as 1.17. As for `COC(=O)/C=C/C(C)=C/C=C/C(C)=C/C=C/C=C(C)/C=C/C=C(C)/C=C/C(=O)O`, the relative growth came to 0.985. `C=CCOC(=O)[C@H]1[C@@H]2C(=O)O[C@@H](c3ccccc3)[C@@H](c3ccccc3)N2[C@@H](c2ccc(OCCOC(=O)[C@@H]3C[C@@H]4C(=O)N[C@@H](CCCC[N+](C)(C)C)C(=O)N4[C@@H]3c3ccc(O)cc3)cc2)[C@]12C(=O)Nc1ccccc12` yielded a relative growth of 1.3.

In turn, `CS(=O)(=O)N(CC(=O)O)Cc1ccccc1` yielded a relative growth of 0.961. On to `C=CCNC(=O)[C@H]1[C@@H]2C(=O)O[C@@H](c3ccccc3)[C@@H](c3ccccc3)N2[C@@H](c2ccc(OCCO)cc2)[C@]12C(=O)N(C(=O)OCCOC)c1ccc(C#CC3(O)CCCCCC3)cc12`, for which the relative growth worked out at 0.998. Then `Cc1cc(/C=N/O)[nH]c(=O)n1`, with 0.998; and `COc1ccccc1-c1ccc2c(c1)O[C@H](CN(C)S(=O)(=O)c1ccccc1)[C@@H](C)CN([C@@H](C)CO)S2(=O)=O`, with 1.

Consider `CN1C(=O)[C@H]2[C@H](C1=O)[C@H]1C=C(c3ccc(CO)cc3)[C@@H]2[C@H](c2cccs2)N1Cc1cccc(OC(F)(F)F)c1`, for which the relative growth was 0.91.

Compound `C[C@]12C=CC(=O)C=C1CCC1C2[C@@H](O)C[C@@]2(C)C1CC[C@]2(O)C(=O)CO` (stereo partly drawn) came in with a relative growth of 1. `CC(=O)O[C@H]1C(=O)[C@@]2(C)[C@H]([C@H](OC(=O)c3ccccc3)[C@]3(O)C[C@H](OC(=O)[C@H](O)[C@@H](NC(=O)c4ccccc4)c4ccccc4)C(C)=C1C3(C)C)[C@]1(OC(C)=O)CO[C@@H]1C[C@@H]2O` showed a relative growth of 0.951. Then `COc1cccc(OC)c1OCCNCCO`, with 1.01; and `O=C(C[C@@H]1C=C[C@@H](NS(=O)(=O)c2ccc(F)cc2)[C@@H](CO)O1)NCc1ccc(Cl)c(Cl)c1`, with 0.829.

Compound `Cc1ccc(CSc2nnc(CCN)o2)cc1` came in with a relative growth of 0.98. Then `COC(=O)COc1nsnc1N1CCOCC1`, with 1.1. Compound `O=C(NCCCN1CCCC1=O)c1cccnc1` gave a relative growth of 1.09.

For the compound `CCCCCCCCc1cc(C)c(OC)c(CC)c1.CCCCCCCCc1ccc(OC)c(C)c1.CCCCCCCCc1ccc(OC)c(C)c1.CCOCCOCCOCCOCCOCCOCCOCCOCCOCCO`, the relative growth came to 1.1. Consider `O=C1O[C@@H](c2ccccc2)[C@@H](c2ccccc2)N2[C@@H](c3ccc(OCCO)cc3)[C@]3(C(=O)Nc4ccc(C#CC5=CCCCC5)cc43)[C@@H](C(=O)N3CCN(c4ncccn4)CC3)[C@H]12`, for which the relative growth was found to be 0.993. On to `CCCCCC(=O)O[C@]1(C(C)=O)CC[C@H]2[C@@H]3CCC4=CC(=O)CC[C@]4(C)[C@H]3CC[C@@]21C`, for which the relative growth was 1.5. Turning to `Cn1cnc(S(=O)(=O)N2C[C@H](O)COC[C@H]3O[C@@H](CC(=O)N4CCN(c5ccccc5)CC4)CC[C@@H]32)c1`, the relative growth turned out to be 0.967.

In the case of `O=C(C[C@H]1CC[C@H](NS(=O)(=O)c2ccccc2F)[C@@H](CO)O1)NCCCN1CCOCC1`, the relative growth was 1.06. Consider `O=C(O[C@@H]1Cc2c(O)cc(O)cc2O[C@@H]1c1ccc(O)c(O)c1)c1cc(O)c(O)c(O)c1`, for which the relative growth is 0.889.

Turning to `Cc1ccc(S(=O)(=O)N[C@@H](Cc2ccccc2)C(=O)NCCCn2cc(C(=O)NO)nn2)cc1`, the relative growth turned out to be 1.21. Then `O=C(C[C@@H]1CC[C@@H]2[C@H](COC[C@@H](O)CN2Cc2cc(F)ccc2F)O1)N[C@@H]1CCN(Cc2ccccc2)C1`, with 1.07; and `Cl.NC(=O)CC[C@H](N)C(=O)O`, with 1.08. Then `C[C@@H]1CN([C@@H](C)CO)C(=O)c2cccc(NC(=O)Nc3cccc4ccccc34)c2O[C@H]1CN(C)S(=O)(=O)c1ccc2ncsc2c1`, with 1.01; and `Cc1cc(C2(c3cc(C)c(N)c(C)c3)CCCCC2)cc(C)c1N`, with 0.849.

`O=C(O)C1CCN(c2ncccn2)CC1`: the relative growth is 0.921. Next, `CC(C)C[C@@H]1NC(=O)[C@H]2C[C@@H](C(=O)NCCCCCC[N+](C)(C)C)[C@@H](c3cccc(OCCO)c3)N2C1=O`: 0.772; `Cc1[nH]c(=O)[nH]c(=O)c1S(=O)(=O)N1CCC[C@H](C(=O)NCc2ccc3c(c2)OCO3)C1`: 0.919.

Turning to `CC(=O)Nn1cc(C(=O)O)c2ccccc2c1=O`, the relative growth stood at 0.901. For `NC(=O)CCN1CCn2c1nc1ccccc12`, the relative growth amounted to 1.14.

As to `Cc1coc2c1C(=O)C(=O)c1c-2ccc2c1CCCC2(C)C`, the relative growth was 1.09. Next, `CC(C)c1c(O)ccc2c1CCC1C(C)(C)C(=O)CC[C@]21C` (stereo partly drawn): 0.978; `C=C1C=[N+]([O-])N(c2ccc(C(=O)O)cc2)N1`: 0.962; `C1=C(c2ccccc2)CC(c2ccccc2)=NN=C1c1ccccc1`: 1.06. `O=C(NCCN1CCOCC1)[C@]1(CCS(=O)(=O)c2ccccc2)N=C(c2ccc(OCCCO)cc2)O[C@@H]1c1ccccc1` yielded a relative growth of 0.803. In turn, `COCC(=O)Nc1ccc2c(c1)OC[C@@H](C)N(Cc1ccccc1OC)C[C@H](C)[C@H](OC)CN(C)C2=O` gave a relative growth of 0.865. As to `COc1ccc(S(=O)(=O)N(C)C[C@H]2Oc3c(NC(=O)Nc4cccc5ccccc45)cccc3C(=O)N([C@H](C)CO)C[C@@H]2C)cc1`, the relative growth turned out to be 0.96. For the compound `c1ccc(NC2CCCCC2)nc1`, the relative growth came out at 0.921. On to `Nc1nc(=O)[nH]cc1NC(=O)c1ccccc1`, for which the relative growth amounted to 1.02. Regarding `C[C@@H]1O[C@@H](OC[C@H]2O[C@@H](Oc3c(-c4ccc(OCCO)c(OCCO)c4)oc4cc(OCCO)cc(O)c4c3=O)[C@H](O)[C@@H](O)[C@@H]2O)[C@H](O)[C@H](O)[C@H]1O`, the relative growth was determined as 1.15. Then `CC(=O)Oc1cc(C(C)C)c(OCCN(C)C)cc1C.Cl`, with 0.907; and `CCc1c(C)c2cc3c(-c4ccccc4)coc3cc2oc1=O`, with 1.23. Next, `CCN(CC)C(=O)/C(C#N)=C/c1cc(O)c(O)c([N+](=O)[O-])c1`: 0.884; `O=c1cc(-c2cccc(O)c2)oc2ccc(O)cc12`: 0.897. As to `CCCC#Cc1ccc2c(c1)O[C@@H](CN(C)Cc1ccc3c(c1)OCO3)[C@H](C)CN([C@@H](C)CO)S2(=O)=O`, the relative growth stood at 1.14.

In turn, `O=C(CN1CCOCC1)NCC[C@@H]1CC[C@H](NC(=O)c2ccccc2F)[C@H](CO)O1` came in with a relative growth of 0.841.

The compound `C[C@@H](NC(=O)C[C@H]1CC[C@@H](NC(=O)CN2CCOCC2)[C@H](CO)O1)c1ccccc1` displayed a relative growth of 1.13. Compound `COc1ccc(-c2noc(CSc3nc4sc(C)c(C)c4c(=O)n3-c3ccccc3)n2)cc1OC` registered a relative growth of 0.91. `O=C(N[C@@H]1CC[C@H](CC(=O)N2CCOCC2)O[C@@H]1CO)c1ccccn1`: the relative growth was found to be 1.06. Compound `C[C@@H]1CN([C@H](C)CO)S(=O)(=O)c2ccc(C#CC(C)(C)O)cc2O[C@@H]1CN(C)Cc1ccc(F)cc1` registered a relative growth of 0.801.

For the compound `COc1ccc([Si](C)(C)[C@@H]2[C@@H](CCO)O[C@]3(C(=O)N(Cc4cccc(N5C(=O)c6cccc7cccc5c67)c4)c4ccccc43)[C@H]2C)cc1`, the relative growth worked out at 1.45. Regarding `C[C@@]1(C2CC2)Cc2cnnn2CCN1`, the relative growth amounted to 0.979.

For `CC(C)[C@H]1CC[C@@H](C)C[C@@H]1NC(=O)c1cccc2ccccc12`, the relative growth was 1.21.

With `O=C(C[C@@H]1CC[C@H](NC(=O)Cc2ccccn2)[C@H](CO)O1)NCCCN1CCOCC1`, the relative growth amounted to 1.15. For the compound `CC1=NCCC2c3ccc(O)cc3NC12` (stereo not drawn), the relative growth was found to be 1.19.

On to `C[C@@H]1CN([C@H](C)CO)C(=O)c2ccccc2-c2ccccc2CO[C@@H]1CN(C)S(=O)(=O)c1ccc(C(F)(F)F)cc1`, for which the relative growth was 0.898. Next, `CO[C@H]1CN(C)C(=O)c2cc(NS(=O)(=O)c3cn(C)cn3)ccc2OC[C@@H](C)N(CCC(F)(F)F)C[C@@H]1C`: 1.18; `Cc1cc(C)cc(OCC2CNC(=O)O2)c1` (stereo not drawn): 0.988; `COc1ccc(C(=O)O)c(O)c1OC`: 1.21. Then `O=C(O)[C@@H]1C(=CCO)O[C@H]2CC(=O)N12`, with 1; and `CC[C@H]1OC(=O)C[C@@H](O)[C@H](C)[C@@H](O[C@@H]2O[C@H](C)[C@@H](O[C@H]3C[C@@](C)(O)[C@@H](O)[C@H](C)O3)[C@H](N(C)C)[C@H]2O)[C@@H](CC=O)C[C@@H](C)C(=O)/C=C/C(C)=C/[C@@H]1CO[C@@H]1O[C@H](C)[C@@H](O)[C@@H](OC)[C@H]1OC.O=C(O)[C@H](O)[C@@H](O)C(=O)O`, with 0.878; and `O=C(O)[C@H](O)[C@@H](O)[C@H](O[C@@H]1O[C@H](CO)[C@H](O)[C@H](O)[C@H]1O)[C@H](O)CO`, with 0.986. Compound `COCC#Cc1ccc2c(c1)O[C@H](CN(C)C(=O)CN(C)C)[C@@H](C)CN([C@H](C)CO)S2(=O)=O` yielded a relative growth of 1.13. Then `CC(C)CC#Cc1ccc2c(c1)O[C@@H](CN(C)C(=O)C1CCOCC1)[C@H](C)CN([C@@H](C)CO)S2(=O)=O`, with 0.826; and `O=C(N/N=C/[C@H](O)[C@@H](O)[C@@H](O)[C@H](O)CO)c1ccccn1`, with 0.997.

As for `CO[C@@]1(NC(=O)CSCC#N)C(=O)N2C(C(=O)[O-])=C(CSc3nnnn3C)CSC21.[Na+]` (stereo partly drawn), the relative growth amounted to 0.939. Compound `CCOC(=O)CNC(=O)c1cc(C)on1` gave a relative growth of 1.11. Then `O=C(CN1CCOCC1)N[C@H]1CC[C@@H](CCNS(=O)(=O)c2ccccc2F)O[C@@H]1CO`, with 1.04; and `c1cnc(N2CC[N+]3(CCCC3)CC2)nc1`, with 1.18; and `O=c1c(-c2ccc(O)cc2)coc2cc(O)ccc12`, with 1.03.
